According to PMC11930079 (The Journal of Biological Chemistry, 2025):

Target: T1, BRD4 tandem bromodomains (aa 36–460), WT (human, UniProt O60885 36-460)
T1 construct: human BRD4, tandem bromodomains BD1 and BD2 with the linker between them, residues 36-460; The His6 tag is named for the sucrose gradient assay; also called BRD4 WT construct; WT BRD4 tandem bromodomains; source: recombinantly purified
Test: ITC; VP-ITC; 0.4 mM peptide injected into the cell with 10 uM BRD4 (aa 36-460); 25 mM Hepes pH 7.5, 150 mM NaCl, 2% v/v glycerol
Details: both partners purified

Kd: ~200 µM
Binder: SGRGKGGKGLGKGGAY (acetyl-lysine at K5 and K12) [H4K5/12-diacetyl peptide]
